Amino acid sequences for entries named in this document (tags omitted).
UniProt P08173, whole entry: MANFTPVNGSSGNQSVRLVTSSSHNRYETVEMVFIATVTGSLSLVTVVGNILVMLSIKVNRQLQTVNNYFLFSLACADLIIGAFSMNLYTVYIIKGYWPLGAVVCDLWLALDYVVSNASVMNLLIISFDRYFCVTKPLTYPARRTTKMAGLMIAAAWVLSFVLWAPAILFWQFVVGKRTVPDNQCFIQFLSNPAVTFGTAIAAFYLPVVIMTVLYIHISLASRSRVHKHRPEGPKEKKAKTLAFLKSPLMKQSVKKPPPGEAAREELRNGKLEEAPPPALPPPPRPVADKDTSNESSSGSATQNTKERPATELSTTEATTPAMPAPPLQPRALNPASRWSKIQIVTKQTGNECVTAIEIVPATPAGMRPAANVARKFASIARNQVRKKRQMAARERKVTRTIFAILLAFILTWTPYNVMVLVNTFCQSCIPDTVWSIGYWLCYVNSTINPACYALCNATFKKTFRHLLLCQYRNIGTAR
UniProt P08485, whole entry: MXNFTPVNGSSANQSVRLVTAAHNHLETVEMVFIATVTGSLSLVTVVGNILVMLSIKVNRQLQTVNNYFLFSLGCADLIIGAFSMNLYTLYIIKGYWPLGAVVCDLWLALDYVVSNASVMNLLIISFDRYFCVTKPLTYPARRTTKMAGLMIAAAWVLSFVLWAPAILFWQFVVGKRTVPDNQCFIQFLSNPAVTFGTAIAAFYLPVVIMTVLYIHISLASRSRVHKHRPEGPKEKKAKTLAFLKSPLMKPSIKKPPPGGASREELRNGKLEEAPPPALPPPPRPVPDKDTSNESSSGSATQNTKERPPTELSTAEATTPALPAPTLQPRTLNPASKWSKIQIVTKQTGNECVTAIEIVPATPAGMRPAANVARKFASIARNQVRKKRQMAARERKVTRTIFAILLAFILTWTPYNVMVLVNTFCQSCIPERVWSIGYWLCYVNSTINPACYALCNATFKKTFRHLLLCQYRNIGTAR

According to ChEMBL document CHEMBL3872258, “Challenges in the development of an M4 PAM in vivo tool compound: The discovery of VU0467154 and unexpected DMPK profiles of close analogs” (Bioorg Med Chem Lett, 2017):

Columns and labels:
[1] = target: Muscarinic acetylcholine receptor M4 (Homo sapiens, UniProt P08173); assay: Positive allosteric modulation of human M4 receptor expressed in CHO cells co-expressing Gqui5 by calcium mobilization assay; type: functional, cell-based
[2] = target: Muscarinic acetylcholine receptor M4 (Rattus norvegicus, UniProt P08485); assay: Positive allosteric modulation of rat M4 receptor expressed in CHO cells co-expressing Gqui5 by calcium mobilization assay; type: functional, cell-based

Cc1nnc2sc(C(=O)NCc3ccc(S(=O)(=O)C(F)(F)F)cc3)c(N)c2c1C
pEC50 [1]: 6.2
pEC50 [2]: 7.75
